One may read the Ki as the equilibrium dissociation constant of an inhibitor or competing ligand from its target. The low end stands for a stronger hold on the target, the high end for a looser hold on the target.

The chains behind the UniProt entries cited, without tags or fusion partners.
UniProt P08913, whole entry: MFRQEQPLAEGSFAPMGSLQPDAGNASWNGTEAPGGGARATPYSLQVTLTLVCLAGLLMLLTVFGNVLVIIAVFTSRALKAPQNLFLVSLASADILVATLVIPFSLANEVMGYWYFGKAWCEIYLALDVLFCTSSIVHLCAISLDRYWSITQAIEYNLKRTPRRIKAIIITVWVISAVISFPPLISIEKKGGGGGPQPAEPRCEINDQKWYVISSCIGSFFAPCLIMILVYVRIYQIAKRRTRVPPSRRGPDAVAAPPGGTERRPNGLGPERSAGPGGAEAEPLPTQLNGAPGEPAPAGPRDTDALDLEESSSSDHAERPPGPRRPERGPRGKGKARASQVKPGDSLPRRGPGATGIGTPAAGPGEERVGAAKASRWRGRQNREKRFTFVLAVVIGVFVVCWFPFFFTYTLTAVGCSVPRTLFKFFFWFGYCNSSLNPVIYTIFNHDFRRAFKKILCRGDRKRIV

This passage reports Ratio and Ki results from ChEMBL document CHEMBL1158639, “Synthesis and in vivo evaluation of [11C]MPTQ: a potential PET tracer for alpha2A-adrenergic receptors” (Bioorg Med Chem Lett, 2010).

A short description of data set [1]: Ratio of drug level in temporal cortex to cerebellum in baboon at 4.43 mCi, iv. As to conditions: papio anubis, in vivo. It is filed as ADME, tissue-based.
Data set [2] in a line: Ratio of drug level in occipital cortex to cerebellum in baboon at 4.43 mCi, iv. Particulars: papio anubis, in vivo. It is filed as ADME, tissue-based.
Data set [3] is described as follows: Ratio of drug level in thalamus to cerebellum in baboon at 4.43 mCi, iv. Format: ADME, tissue-based. Particulars: papio anubis, in vivo.
Data set [4] is described as follows: Ratio of drug level in cingulate cortex to cerebellum in baboon at 4.43 mCi, iv. Format: ADME, tissue-based. Particulars: papio anubis, in vivo.
Data set [5] can be described thus: Ratio of drug level in hippocampus to cerebellum in baboon at 4.43 mCi, iv. It is filed as ADME, tissue-based. Particulars: papio anubis, in vivo.
The nature of data set [6]: Ratio of drug level in cuadate putamen to cerebellum in baboon at 4.43 mCi, iv. Format: ADME, tissue-based. Particulars: papio anubis, in vivo.
The target in data set [7] is Alpha-2A adrenergic receptor (Homo sapiens, UniProt P08913). As to the kind of experiment: Displacement of [3H]rauwolscine from adrenergic alpha2A receptor. For orientation: Displacement assays read how much labelled ligand stays bound in the presence of the test substance.

`[11CH3]N1CC2C(=NO[C@H]2CN2CCN(C/C=C/c3ccccc3)CC2)c2ccccc21` (some centres not stated): the Ratio is listed as 1.28 in data set [1]; 0.9 in data set [2]; 1.66 in data set [3]; 1.34 in data set [4]; 1.52 in data set [5]; 1.4 in data set [6].
Compound `CN1CC2C(=NO[C@H]2CN2CCN(C/C=C/c3ccccc3)CC2)c2ccccc21` (some centres not stated) registered an inhibition constant (Ki) in data set [7] of 1.6 nM.
